Protein sequences, listed by entry. Tags and fused reporters are not part of them. Residues count along the entry.
UniProt P25101, 21-427 limits assumed: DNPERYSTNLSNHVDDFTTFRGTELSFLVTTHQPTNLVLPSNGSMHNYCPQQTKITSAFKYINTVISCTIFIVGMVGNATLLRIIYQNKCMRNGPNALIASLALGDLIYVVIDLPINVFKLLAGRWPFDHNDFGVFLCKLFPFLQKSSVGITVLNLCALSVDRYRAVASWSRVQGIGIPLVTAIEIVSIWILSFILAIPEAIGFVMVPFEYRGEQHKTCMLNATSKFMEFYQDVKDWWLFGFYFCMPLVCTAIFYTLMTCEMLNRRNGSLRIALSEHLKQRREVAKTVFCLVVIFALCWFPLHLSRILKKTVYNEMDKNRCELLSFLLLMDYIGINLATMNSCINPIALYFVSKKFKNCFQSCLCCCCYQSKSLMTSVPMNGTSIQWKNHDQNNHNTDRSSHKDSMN
UniProt P24530, 27-442 limits assumed: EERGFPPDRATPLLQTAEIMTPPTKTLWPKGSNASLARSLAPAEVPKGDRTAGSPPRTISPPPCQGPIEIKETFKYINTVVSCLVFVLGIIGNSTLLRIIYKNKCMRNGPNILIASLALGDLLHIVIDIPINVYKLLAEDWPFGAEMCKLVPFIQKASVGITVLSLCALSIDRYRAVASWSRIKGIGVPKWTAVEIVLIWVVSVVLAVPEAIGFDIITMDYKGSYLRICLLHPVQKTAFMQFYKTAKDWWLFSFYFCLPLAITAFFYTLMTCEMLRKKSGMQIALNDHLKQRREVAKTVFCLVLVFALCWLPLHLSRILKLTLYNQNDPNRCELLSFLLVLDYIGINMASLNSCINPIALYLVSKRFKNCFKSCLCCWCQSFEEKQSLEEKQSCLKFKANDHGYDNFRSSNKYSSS

According to patent US7094781B2, “Sulfamides and their use as endothelin receptor antagonists” (Actelion Pharmaceuticals Ltd., priority 2000, dated 2006):

Tests used:
[1] = target: human recombinant ETA receptor (Homo sapiens, UniProt P25101); test: Inhibition of [125I]ET-1 binding to membranes from CHO cells carrying human ETA receptors; conditions: read-out: IC50 ETA; CHO cell membranes, 8 pM [125I]ET-1, 2 h at 20° C.
[2] = target: human recombinant ETB receptor (Homo sapiens, UniProt P24530); test: Inhibition of [125I]ET-1 binding to membranes from CHO cells carrying human ETB receptors; conditions: read-out: IC50 ETB; CHO cell membranes, 8 pM [125I]ET-1, 2 h at 20° C.

Row | IC50 [1] [µM] | IC50 [2] [µM] | Compound
1 | 0.0384 | 0.667 | COc1ccccc1Oc1c(NS(=O)(=O)NC2CC2)nc(-c2ncccn2)nc1OCCOc1ncccn1
2 | 0.0027 |  | CCCCNS(=O)(=O)Nc1nc(-c2ncccn2)nc(OCCOc2ncc(Br)cn2)c1Oc1ccccc1OC
3 | 0.133 | 0.682 | COc1ccccc1Oc1c(NS(=O)(=O)NC2CC2)nc(-c2ncccn2)nc1OCCOc1ccc(C(F)(F)F)cn1

Further lines, the compound ahead of its results:

Row | Compound | IC50 [1] [µM] | IC50 [2] [µM]
4 | COc1cnc(OCCOc2ncnc(NS(=O)(=O)NCc3ccccn3)c2-c2ccc(Cl)cc2)nc1 | 0.025 | 3.41
5 | COc1cnc(OCCOc2nc(-c3ncccn3)nc(NS(=O)(=O)NCc3ccccc3)c2Oc2ccccc2OC)nc1 | 0.0145 | 0.29
6 | CCCCNS(=O)(=O)Nc1nc(-c2ncccn2)nc(OCCOc2ncc(SC)cn2)c1Oc1ccccc1OC | 0.0009 | 0.04
7 | COc1ccccc1Oc1c(NS(=O)(=O)NCc2ccccn2)nc(-c2cnccn2)nc1OCCOc1ncc(Br)cn1 | 0.011 | 0.487
